From paper PMC9071858, “Comparative Pharmacokinetics of Seven Major Compounds in Normal and Atherosclerosis Mice after Oral Administration of Simiao Yong'an Decoction” (Evidence-based Complementary and Alternative Medicine : eCAM, 2022)

Columns and labels:
[1] = Pharmacokinetic study in atherosclerosis (AS) model ApoE−/− mice after oral administration of SMYAD; type: in vivo, mouse; conditions: plasma, SMYAD intragastric 35 g/kg/d for seven days, mean ± SD, n = 5
Description: (§1) Male C57BL/6J mice and ApoE^−/− mice on a C57BL/6 background (7 weeks old, 18–22 g) were purchased from Beijing Vital River Laboratory Animal Technology Co., Ltd. (Beijing, China, Certificate No.: SCXK (Jing) 2016-0006). All the mice were kept in an SPF animal house (Dongzhimen Hospital Affiliated to Beijing University of Chinese Medicine, Certificate No.: SYXK (Jing) 2015-0001) with food and water freely available, 12 h light/dark, and environmental conditions of 22°C–24°C, 50% relative humidity. All protocols of animal experiments were performed in accordance with the National Guidelines for Laboratory Animal Welfare and were approved by the Animal Ethics Committee of Beijing University of Chinese Medicine (NO. BUCM-4-2015071701-3001). High-fat feeding (containing 15% fat and 0.25% cholesterol) was provided by Beijing HFK bioscience CO., LTD. (Beijing, China, Certificate No.: SCXK (Jing) 2014-0018).
The AS model was established by a high-fat diet and perivascular carotid collar placement (PCCP) surgery in the ApoE^−/− mice. After a 7-day adaptive feeding, the mice were given a high-fat diet for 2 weeks; before anesthesia, all ApoE^−/− mice were fasted for 12 hours. During the surgery, the right common carotid artery was exposed, and a silicone cannula (length: 2.5 mm, inner diameter: 0.3 mm) was fixed around the carotid artery (external diameter: about 0.5 mm). Penicillin was injected intraperitoneally for 3 days after surgery to prevent infection. High-fat diet continued for 8 weeks after surgery to establish AS model. Biochemical assays and hematoxylin and eosin (HE) staining were used to evaluate whether AS model was successfully established.
(§2) Normal control (NC) and AS mice (30 per group) were employed to investigate the pharmacokinetic properties of harpagide, chlorogenic acid, swertiamarin, sweroside, angoroside C, liquiritin, and isoliquiritigenin after the oral administration of SMYAD. After successful induction of AS model, SMYAD was administered to NC and AS mice by intragastric gavage at the crude drug dose of 35 g/kg/d for seven days. Blood samples were collected from each mouse in heparinized tubes via the postorbital venous plexus veins at 0, 0.25, 0.5, 1, 2, 4, 6, 8, 10, 12, 18, and 24 h after seven days of drug administration. Then blood samples were immediately centrifuged at 3500 rpm at 4°C for 10 min and the plasma was stored at −80°C until use.
(§3) Each plasma sample (100 μL) was mixed with a threefold volume of methanol and 25 μL IS in a 1.5 mL EP tube. Then the mixture was vortexed for 100 seconds and centrifuged at 12,000 rpm for 10 min at 4°C. The supernatant was transferred to another EP tube and evaporated to dryness under a nitrogen vacuum. The residue was reconstituted with 100 μL of 50% methanol and centrifuged at 15,000 rpm for 15 min. Then the supernatant was transferred to sample vials for the LC-MS analysis.
(§4) A Vanquish UHPLC™ system (Thermo Fisher Scientific Inc., USA) was used for the analysis. Samples were separated on an Atlantis T3 column (4.6 mm × 150 mm, 3 μm; Waters, USA). The column temperature was 40°C. The mobile phase, at 0.4 mL/min, consisted of water containing 0.1% formic acid (v/v, A) and methanol (B). The quantitative analysis gradient program was as follows: 0-1 min, 0 B; 1–6 min, 0–100% B; 6–12 min, 100% B; 12–12.1 min, 100%-0 B; 12.1–15 min, 0 B. The injection volume was 5 μL.
The mass spectrometer Q Exactive HF-X (Thermo Fisher Scientific Inc., USA) system was connected to the UHPLC system via heated electrospray ionization (HESI) and controlled by Xcalibur 4.2 software (Thermo Fisher) that was used for data collection and analysis. The mass spectrometer was operated in a negative ionization mode. […]

[2] = Pharmacokinetic study in normal control (NC) mice after oral administration of SMYAD; type: in vivo, mouse; conditions: plasma, SMYAD intragastric 35 g/kg/d for seven days, mean ± SD, n = 5
Description: as §1, §2, §3, §4
The mass spectrometer Q Exactive HF-X (Thermo Fisher Scientific Inc., USA) system was connected to the UHPLC system via heated electrospray ionization (HESI) and controlled by Xcalibur 4.2 software (Thermo Fisher) that was used for data collection and analysis. The mass spectrometer was operated in a negative ionization mode. The MS parameters were set as follows: probe heater temperature, 350°C; capillary temperature: 320°C; sheath gas (N2) flow rate: 30 arbs; auxiliary gas (N2) flow rate: 10 arbs; spray voltage: 3.2 kV (negative); S-Lens RF level: 55 V; scan mode: full MS (resolution 12000); scan range: m/z 150–1500. The most abundant ions in the spectra were selected for sensitive quantitation ([M-H]^−of chlorogenic acid, angoroside C, liquiritin, isoliquiritigenin, and IS, [M + COOH]^− of harpagide, swertiamarin, and sweroside). The m/z of harpagide was 409.13405, chlorogenic acid was 353.08671, swertiamarin was 419.11840, sweroside was 403.12349, angoroside C was 783.27061, liquiritin was 417.11801, isoliquiritigenin was 255.06519, and IS was 591.17083. […]

[3] = Stability of analytes in QC plasma samples; type: in vitro ADME, mouse; conditions: n = 5
Description: Standard calibration curves were constructed by spiking 100 μL of blank mouse plasma with 25 μL of the standard working solutions and 25 μL of the IS working solution, yielding final plasma concentrations in the range of 2–1500 ng/mL for harpagide, 1–2000 ng/mL for chlorogenic acid, 5–12000 ng/mL for swertiamarin, 5–2500 ng/mL for sweroside, 5–500 ng/mL for angoroside C and liquiritin, and 2–500 ng/mL for isoliquiritigenin.
Quality control (QC) samples at three concentration levels (38.4, 240, and 600 ng/mL for harpagide; 51.2, 320, and 800 ng/mL for chlorogenic acid; 307.2, 1920, and 4800 ng/mL for swertiamarin; 64, 400, and 1000 ng/mL for sweroside; 12.8, 80, and 200 ng/mL for angoroside C, liquiritin, and isoliquiritigenin) were prepared by the same operation described above. All solutions were stored at 4°C.
Stability was evaluated as five replicate QC samples at two concentration levels (see Table 5).

[4] = high QC level (600 harpagide, 800 chlorogenic acid, 4800 swertiamarin, 1000 sweroside, 200 others ng/ml)
[5] = low QC level ([…] harpagide, 51.2 chlorogenic acid, 307.2 swertiamarin, 64 sweroside, 12.8 others ng/ml)

harpagide
AUC0–t [1]: 11075.09 ± 2132.38^∗∗ ng·mL^−1·h | AUC0–∞ [1]: 16221.95 ± 5622.42^∗ ng·mL^−1·h | C max [1]: 939.74 ± 180.83 ng/mL | CLz/F [1]: 2.45 ± 0.87^∗∗ L/h/mg | Vz/F [1]: 24.34 ± 16.57 L/mg | t 1/2 [1]: 8.55 ± 3.97 h | t max [1]: 4.00 ± 0.00 h | AUC0–t [2]: 6936.17 ± 533.23 ng·h/mL | AUC0–∞ [2]: 7194.33 ± 588.34 ng·h/mL | C max [2]: 838.40 ± 126.54 ng/mL | CLz/F [2]: 81700 ± 6670 µL/min/mg | Vz/F [2]: 32.74 ± 7.64 L/mg | t 1/2 [2]: 8.40 ± 1.80 h | t max [2]: 6.00 ± 2.19 h | Freeze-thaw stability 3 freeze-thaw cycles Accuracy RE [3, 4]: −2.09% | Freeze-thaw stability 3 freeze-thaw cycles Calc. conc. [3, 4]: 587.47 ± 36.62 ng/mL | Long-term stability −20°C for 30 d Accuracy RE [3, 4]: 2.15% | Long-term stability −20°C for 30 d Calc. conc. [3, 4]: 612.90 ± 22.28 ng/mL | Postpreparative stability 24 h in the autosampler (4°C) Accuracy RE [3, 4]: −4.08% | Postpreparative stability 24 h in the autosampler (4°C) Calc. conc. [3, 4]: 575.51 ± 22.16 ng/mL | Short-term stability 24 h in room temperature (20°C) Accuracy RE [3, 4]: 9.08% | Short-term stability 24 h in room temperature (20°C) Calc. conc. [3, 4]: 654.47 ± 22.87 ng/mL | Freeze-thaw stability 3 freeze-thaw cycles Accuracy RE [3, 5]: −0.92% | Freeze-thaw stability 3 freeze-thaw cycles Calc. conc. [3, 5]: 38.05 ± 4.19 ng/mL | Long-term stability −20°C for 30 d Accuracy RE [3, 5]: 5.94% | Long-term stability −20°C for 30 d Calc. conc. [3, 5]: 40.68 ± 3.21 ng/mL | Postpreparative stability 24 h in the autosampler (4°C) Accuracy RE [3, 5]: −0.13% | Postpreparative stability 24 h in the autosampler (4°C) Calc. conc. [3, 5]: 38.35 ± 3.75 ng/mL | Short-term stability 24 h in room temperature (20°C) Accuracy RE [3, 5]: 2.45% | Short-term stability 24 h in room temperature (20°C) Calc. conc. [3, 5]: 39.34 ± 1.92 ng/mL
